Reference: US11092610B2, “Biomarker SBP1 for early diagnosis of kidney diseases, and use thereof” (CELLGENTEK CO., LTD., priority 2016, dated 2021)

Tested on: SD rats
[1] = very small dose (0.1 mg/kg) for a month

HgCl2 [mercury]
renal failure, pathological findings of kidney tissue (H&E staining) (chronic oral administration, low dose (0.1 mg/kg), one month): renal failure was induced
SBP1 expression in renal tissue (low dose orally administered): increased
BUN level [1]: not increased
SBP1 in urine [1]: detected
creatinine level [1]: not increased
histological damage [1]: not increased
